Assay results from US4855316A (priority 1988, dated 1989).

Protein sequences, listed by entry. Tags and fused reporters are not part of them. Lines headed by an entry give the natural chain unless they say otherwise; changes in a name come on top. Residues count along the entry.
UniProt P41144: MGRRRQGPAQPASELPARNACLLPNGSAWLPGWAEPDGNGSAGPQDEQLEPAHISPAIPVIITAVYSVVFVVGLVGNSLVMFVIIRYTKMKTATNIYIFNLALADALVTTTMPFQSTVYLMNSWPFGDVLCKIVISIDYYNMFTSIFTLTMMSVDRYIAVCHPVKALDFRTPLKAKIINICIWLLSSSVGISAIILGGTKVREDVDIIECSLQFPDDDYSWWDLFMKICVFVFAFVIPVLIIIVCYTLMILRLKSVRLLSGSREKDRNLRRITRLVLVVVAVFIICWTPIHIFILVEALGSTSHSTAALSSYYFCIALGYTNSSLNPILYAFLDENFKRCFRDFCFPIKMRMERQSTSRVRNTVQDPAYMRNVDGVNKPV
UniProt A0ACM8Q262, 1-400: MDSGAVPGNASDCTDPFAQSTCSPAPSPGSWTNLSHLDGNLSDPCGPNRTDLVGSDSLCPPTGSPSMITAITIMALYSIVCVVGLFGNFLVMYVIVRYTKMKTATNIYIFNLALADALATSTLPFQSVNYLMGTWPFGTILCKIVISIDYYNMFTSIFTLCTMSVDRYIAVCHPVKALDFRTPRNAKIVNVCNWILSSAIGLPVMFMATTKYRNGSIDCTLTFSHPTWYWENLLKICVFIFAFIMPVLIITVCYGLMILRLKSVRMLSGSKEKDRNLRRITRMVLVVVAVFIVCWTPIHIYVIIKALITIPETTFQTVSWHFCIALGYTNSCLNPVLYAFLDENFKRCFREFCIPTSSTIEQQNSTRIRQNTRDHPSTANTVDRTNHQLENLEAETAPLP

Columns and labels:
kappa opioid receptor = kappa opioid receptor (Cavia porcellus, UniProt P41144); test: kappa opioid binding: tritiated etorphine displacement in guinea pig brain homogenates (DADLE and DAGO added to saturate delta and mu sites); conditions: read-out: Opoid Binding Kappa Ki; guinea pig brain homogenate, [3H]etorphine, 200 nanomolar DADLE and 200 nanomolar DAGO
mu opioid receptor = mu opioid receptor (Cavia porcellus, UniProt A0ACM8Q262); test: mu opioid receptor binding: tritiated DAGO in guinea pig brain homogenates; conditions: read-out: Opoid Binding Mu Ki; guinea pig brain homogenate, [3H]DAGO, 150 minutes, 0° C.
[1] = standard rat paw pressure analgesia test; format: in vivo; conditions: i.v.
Text: The ED50 doses for several representative compounds of this invention in the standard rat paw pressure analgesia test are presented in Table 1.

| Structure (SMILES) | Ki (kappa opioid receptor) [nM] | Ki (mu opioid receptor) [nM] | Rat Paw Pressure MPE50 [1] [mg·kg] |
| --- | --- | --- | --- |
| CO[C@H]1C[C@@H](N2CCCC2)[C@H](N(C)C(=O)COc2cc(C)c(Cl)c(C)c2Cl)C[C@H]1OC (relative stereo) [Compound 8] | 150 |  |  |
| CO[C@H]1C[C@@H](N2CCCC2)[C@H](N(C)C(=O)CC2c3ccccc3-c3ccccc32)C[C@H]1OC (relative stereo) [Compound 7] | 8.7 |  |  |
| CO[C@H]1C[C@@H](N2CCCC2)[C@H](N(C)C(=O)COc2ccc(Cl)c(Cl)c2)C[C@H]1OC (relative stereo) [Compound 4] | 270 |  |  |
| CO[C@H]1C[C@@H](N2CCCC2)[C@H](N(C)C(=O)Cc2cccc3ccccc23)C[C@H]1OC (relative stereo) [Compound 5] | 39 | 6600 |  |
| CO[C@H]1C[C@@H](N2CCCC2)[C@H](N(C)C(=O)Cc2cccc3sccc23)C[C@H]1OC (relative stereo) | 16 | 820 | 0.8 |
| CO[C@H]1C[C@@H](N2CCCC2)[C@H](N(C)C(=O)COc2cc(C)c(Cl)c(C)c2)C[C@H]1OC (relative stereo) [Compound 3] | 180 |  |  |
| CO[C@H]1C[C@@H](N2CCCC2)[C@H](N(C)C(=O)Cc2cccc3occc23)C[C@H]1OC (relative stereo) | 18 | 2800 | 1.5 |
| CO[C@H]1C[C@@H](N2CCCC2)[C@H](N(C)C(=O)COc2cccc(F)c2)C[C@H]1OC (relative stereo) [Compound 9, N-[4,5-Dimethoxy-2-(1-pyrrolidinyl)cyclohexyl]-2-(3-fluorophenoxy)-N-methylacetamide] | 400 |  |  |
| CO[C@H]1C[C@@H](N2CCCC2)[C@H](N(C)C(=O)Cc2ccc(Cl)c(Cl)c2)C[C@H]1OC (relative stereo) [Compound 6] | 23 | 500 |  |
